Yeast mating assay B: variants of the scFv Ab-14

The target is the same throughout: PDVDLGDISGINAS, from the HR2 region of SARS-CoV-2 spike.

Ab-14 is the parent antibody, in scFv form: VH, then three GGGGS repeats, then VL. The heavy chain is unchanged in all variants.
VH: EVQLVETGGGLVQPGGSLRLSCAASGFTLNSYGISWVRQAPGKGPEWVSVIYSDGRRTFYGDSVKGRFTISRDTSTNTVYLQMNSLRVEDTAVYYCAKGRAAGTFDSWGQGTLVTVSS
VL: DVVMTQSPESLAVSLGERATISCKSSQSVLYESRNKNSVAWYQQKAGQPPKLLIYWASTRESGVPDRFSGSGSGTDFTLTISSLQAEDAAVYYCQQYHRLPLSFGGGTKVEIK

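The starting antibody came from a phage panning campaign against this peptide. Designed CDR sequences, proposed from the first random library and measured here. Several design methods are mixed in this list. Affinity was read by AlphaSeq, a pooled yeast mating assay with surface-displayed partners. Mating (16 h, 30 °C) was followed by selection of diploids and sequencing of their barcodes. Scores were corrected for input abundance and mapped to Kd with protein pairs of known affinity run in the same pool. Each pool was mated in six replicate cultures.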

Variants are written as CDR1, CDR2 and CDR3 of the light chain (limits as in the source). Parent: KSSQSVLYESRNKNSVA, WASTRES, QQYHRLPLS.
This list holds designs with at most six substitutions.
The read-out is the apparent dissociation constant on a log10 scale (nM): the lower, the stronger.
The mean shown is taken over the replicates in which the pair was detected.
Where no diploid with the target was found in that replicate, the entry reads "n.d.": below detection, most likely a poor binder, though not proof of it.
A sequence measured in both rounds can read differently, since the two assays cover different ranges.
As a blank, each scFv also met three strains without target: over all light chain designs, 4% of these pairings were detected, typically at 2.64 and seldom below 1.59.
The authors averaged sequences with at least three values out of six and counted those with two or fewer as poor binders.

CDR-L1	CDR-L2	CDR-L3	log10 Kd (nM) by replicate	log10 Kd (nM), mean
KSSQGVLYESRNKNSVA	GASQRES	QQYHRLPLS	0.41 0.38 0.09 0.16 0.09 0.30	0.24
KLSQSVLYESRQKNSVA	NASTRCS	QQYHRLPLS	0.01 -0.44 -0.82 -0.87 -0.41 -0.13	-0.44
KLSQSVLYDSRNKNSVA	WASMRES	QQYFRLPLS	-0.02 1.13 1.17 -0.32 0.27 0.74	0.50
KSSQSVLYESANKNSVA	WASTRES	QQYHRLPLS	2.02 1.20 0.64 0.83 1.66 1.31	1.28
KVSQSWQYGSRNKNSVA	HASQRES	QQYHRLPLS	0.86 0.64 0.77 0.81 0.92 0.98	0.83
KSSQGVLEESRNKNSVA	WASTRES	QQYHRLPLY	2.33 1.85 n.d. 1.91 2.46 1.75	2.06
KSSWSVLYESGNKNSVA	NASTRED	QQYHRLPLS	0.57 0.33 0.32 0.24 0.69 0.57	0.45
KSSQSVFYESRNKNSVA	WASTRES	QQYHREPLS	n.d. n.d. n.d. n.d. n.d. n.d.	n.d.
KLSQSVPYESRNKNSVA	NASTREK	QQYHRLPLS	0.58 0.44 0.43 0.42 0.59 0.57	0.51
KVSQSWLMESRNKNSVA	EASTRNS	QQYHRLPLS	-0.12 -0.38 -0.26 -0.44 -0.36 -0.21	-0.30
KSSQSVLYESRNKNSVA	WASTRES	QQTHKLPLS	n.d. n.d. n.d. n.d. n.d. n.d.	n.d.
KSSQLVDYTSRNKNSVA	YASTRES	QQYHRLPLS	0.96 2.62 2.53 1.32 1.56 1.35	1.72
KMPQSVLYEQRNKNSVA	NGSTRFS	QQYHRLPLS	0.18 -0.13 0.04 -0.22 -0.24 0.20	-0.03
KLQQSWLYESRNKNSVA	GASQRES	QQYHRLPLS	0.11 0.08 -0.33 -0.32 -0.24 -0.41	-0.19
KLSQSVLYESRNKNSVA	DASTRES	YQYHRLPIS	n.d. n.d. n.d. 1.19 n.d. 1.91	1.55
KLSQSVGYESRNKNSVA	DASQRES	QQYHRLPLS	0.21 -0.05 -0.17 -0.20 0.05 0.17	0.00
KLSWSVLGMSRAKNSVA	NASTRES	QQYHRLPLS	0.04 0.16 0.52 0.50 0.78 0.32	0.39
KLSQSMGYESRNKNSVA	HASTRES	QQYHRLPLS	0.37 0.08 -0.07 0.17 0.18 0.28	0.17
HSSPSVLYEDRNKNSVA	NASTRER	QQYHRLPLS	-0.28 -0.18 -0.10 -0.16 -0.02 0.13	-0.10
KSSISYLEESRNKNSVA	EASTREL	QQYHRLPLS	0.08 -0.13 -0.20 -0.01 -0.07 -0.04	-0.06
KLQQSVLYESRNKNSVA	NASTRFS	QQYHRLPLS	-0.01 -0.05 -0.08 -0.13 -0.14 -0.13	-0.09
KISQSVLYESRNKNSVA	DASTRET	QQYHRLPLS	-0.22 -0.34 -0.44 -0.39 -0.52 -0.29	-0.37
KLVNSTLYESRQKNSVA	QASTRES	QQYHRLPLS	1.10 0.88 1.13 0.76 1.15 1.21	1.04
KSSQSVLYEERNKNSVA	WASTRES	QQGFRLPLS	n.d. n.d. n.d. n.d. n.d. n.d.	n.d.
KCSLSVLFESRNKNSVA	NASTRES	QQYHRLPLS	0.43 0.25 0.19 0.15 -0.01 0.26	0.21
KLEQSHLYESRNKNAVA	NASQRES	QQYHRLPLS	-0.19 -0.31 -0.57 -0.48 -0.48 -0.23	-0.38
KVSQSDLYESRNKNSVA	NGSTRES	QQYHRLPLS	0.38 0.34 0.00 0.45 -0.11 0.25	0.22
NSSQSWLYESRNKNSVA	GASTRES	QQYHRLPLS	0.31 0.32 0.57 0.07 0.08 0.41	0.29
KLSQSVLYESRNKNSVA	NASQREQ	QDYHRLPLS	-0.32 -0.24 -0.46 -0.48 -0.36 -0.22	-0.35
KLVQSWLYESRNKNSVA	NASQRES	QQYHRLPLS	0.33 0.35 0.17 0.34 0.38 0.44	0.33
KSSQSQLYESRNKNSVA	GASTRES	QQYHRLELS	n.d. n.d. n.d. n.d. n.d. n.d.	n.d.
KISQSWNYESRNKNSVA	GASTRES	QQYHRLPLS	0.65 0.32 0.13 0.11 0.34 0.47	0.33
KQSQSVLYESRNKNSVA	WASTRES	QQYHRTPLS	n.d. n.d. n.d. n.d. n.d. n.d.	n.d.
KMEQGVDYESRNKNSVA	GASTRES	QQYHRLPLS	-0.19 -0.40 -0.43 -0.42 -0.33 -0.06	-0.31
KSSQSVHWESRNKNSVA	WASTRES	QQYHRLPLS	n.d. n.d. n.d. n.d. n.d. 4.20	4.20
KLQQSNPYESRNKNSVA	NASTRES	QQYHRLPLS	0.42 0.04 0.24 0.01 0.11 0.13	0.16
KSSQSALYESRNKNSVA	WASTRES	QQYHRLPLN	n.d. n.d. n.d. n.d. 2.12 n.d.	2.12
MSSQSVLYQSRNKNSVA	WASTRES	QQYHHLPLS	n.d. n.d. n.d. n.d. n.d. n.d.	n.d.
KSSQSLLYESFNKNSVA	AAKTRES	YQYHSLPLS	n.d. n.d. n.d. n.d. n.d. n.d.	n.d.
KSSQSVLYESRNKNSVA	DASTRES	QQYARLPLS	0.16 0.57 0.67 0.95 0.68 0.80	0.64
KMSQSELYESRNKNSVA	NASYRES	QQYHRLPLS	0.00 0.05 -0.09 0.14 -0.18 0.10	0.00
KSSQSVLYEDRNKNSVA	WASTRES	QQYHILPLS	2.12 1.16 1.82 n.d. 1.80 1.24	1.63
KSSQSVLEESRNSNSVA	WASTRES	QQYHRLPLS	1.56 1.30 0.67 1.13 1.21 0.44	1.05
KLSQSVLYESRNKNSVA	EASTKES	QQYHRLPLS	0.23 -0.39 -0.55 -0.30 -0.27 -0.24	-0.25
KSAQSVPYESRNKNSVA	EASTRES	QQYHRLPLS	0.71 0.89 0.43 0.68 0.72 0.65	0.68
KLSQSVLYESRLANSVA	WASDRES	QQYHRLPLS	1.15 1.44 1.15 0.87 1.31 1.05	1.16
HCSQSVMTESRNKNSVA	WASTRES	QAYHRLPLS	2.51 2.28 2.04 1.92 1.93 n.d.	2.13

3 of these entries, quoted again:

CDR-L1	CDR-L2	CDR-L3	log10 Kd (nM) by replicate	log10 Kd (nM), mean
KSSQSVHWESRNKNSVA	WASTRES	QQYHRLPLS	n.d. n.d. n.d. n.d. n.d. 4.20	4.20
KQSQSVLYESRNKNSVA	WASTRES	QQYHRTPLS	n.d. n.d. n.d. n.d. n.d. n.d.	n.d.
KLSQSVGYESRNKNSVA	DASQRES	QQYHRLPLS	0.21 -0.05 -0.17 -0.20 0.05 0.17	0.00

Values reported by Li et al. 2023, doi:10.1038/s41467-023-39022-2 (FLAb copy).